Screens as filed in PubChem BioAssay.
Cneo AK release: Cryptococcus neoformans cell lysis inducers, primary screen, AK release luminescence, single concentration; C. neoformans lysis, adenylate kinase release luminescence, 4 h; normalised: neutral wells 0, clomiphene wells 100; lysis activity, % at 15 µM; hit rate 0.2% among 360,000; AID 651654, 2012;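 active = mean lysis activity across replicates of at least 80%, whatever share of replicates individually reach that level; inactive = mean lysis activity below 80%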
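Assay system: Cryptococcus neoformans yeast cells / Dosing: single-point compound dose / Timing: 4 h at 37 °C static, read 1 h later / Measured by: luminescence of released adenylate kinase using an AK detection reagent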
C2C12 statin: suppressors of statin myotoxicity in C2C12 myotubes, primary screen, cell-based, single point, plate reader | C2C12 myotubes + simvastatin, ATP luminescence, 48 h; scaled: DMSO 0, geranylgeraniol control 100 | rescue of ATP level, % at 7.49 µM | hit rate 0.78% among 330,000 | AID 602340, 2012;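 active = mean ATP rescue above about 67%, or every replicate alone reaching that limit, limit read from the data, passing the limit was not always enough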;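 note: myotubes were challenged with 10 µM simvastatin during compound exposure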
miR122 inh: miR-122 Renilla sensor signal increase in Huh7, primary screen, miR-122 inhibitor project, cell-based, single point, plate reader | Huh7 miR-122 Renilla luciferase sensor, 48 h; neutral wells = 0, positive control = 100 | activation (reporter increase), % at 12.5 µM | hit rate 0.3% among 340,000;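 active = mean replicate activation score at least 90 and every replicate individually at or above 90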;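 note: higher luciferase means less miR-122 activity so hits act as miR-122 inhibitors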
Yeast UUG start: alters start codon recognition fidelity in yeast. S. cerevisiae UUG-firefly luciferase reporter, luminescence/redox ratio. activity score, % at 18.7 µM. 0.13% of 350,000 active. AID 602363;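 active = replicate mean at a twofold rise or more, about +100% in these data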;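 also: firefly luciferase made from a UUG start codon reports start codon fidelity; reporter light over untreated wells divided by growth signal over untreated wells; some hits fall short of that in this replicate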
A number is an active result; . = inactive; / = no result; [ ] = dose if it differs, or a comment. Compounds with a hit are over-represented: about 1.2% of the library has one in this group of screens.

SMILES	Cneo AK release	C2C12 statin	miR122 inh	Yeast UUG start
S=c1nc(-c2ccc(Cl)cc2)[nH][nH]1	.	.	.	.
S=c1nc(-c2ccco2)[nH][nH]1	.	96	.	.
CCCNC(=O)N1C[C@@H](O)COC[C@H]2O[C@H](CC(=O)N3CCOCC3)CC[C@@H]21	.	.	.	.
COc1ccc(Br)cc1C1SCCN1S(C)(=O)=O (centres undefined)	.	118	.	.
CS(=O)(=O)N1CCSC1c1ccc(Br)cc1 (centres undefined)	.	.	.	.
CN(C)c1ccc2c(c1)[C@H]1C[C@H](CC(=O)O)O[C@@H](CO)[C@H]1O2	.	.	.	/
CN1C(=O)c2cc(NC(=O)c3ccc(F)cc3)ccc2OC[C@@H]2O[C@@H](CC(=O)N3CCOCC3)CC[C@@H]21	.	.	.	.
NC(=O)COC(=O)C(Cc1ccccc1)NS(=O)(=O)c1ccccc1F (centres undefined)	.	109	.	.
C[C@H]1CN([C@@H](C)CO)C(=O)CCCn2nncc2CO[C@H]1CN(C)C(=O)Nc1ccc(N2CCN(C)CC2)cc1	.	.	.	.
C[C@@H]1CN([C@H](C)CO)C(=O)c2cc(NC(=O)Cc3ccccc3)ccc2O[C@H]1CN(C)Cc1ccccc1	.	.	.	.
O=C(C[C@@H]1C[C@H]2c3cc(NC(=O)NC4CCCCC4)ccc3O[C@H]2[C@H](CO)O1)NCC1CC1	.	.	.	.
CN(C(=O)c1cnc(N2CCN(c3ncccn3)CC2)c2ccccc12)c1ccc(Cl)cc1	.	.	.	.
CCN(C(=O)c1cnc(N2CCN(c3ncccn3)CC2)c2ccccc12)c1cccc(Cl)c1	.	110	.	.
CCc1ccc2[nH]c(=O)c(CN(Cc3ccccc3OC)Cc3nnnn3Cc3ccco3)cc2c1	.	100	.	.
COc1ccccc1CN(Cc1cc2cc(C)ccc2[nH]c1=O)Cc1nnnn1Cc1ccco1	.	.	.	.
O=C(C[C@H]1CC[C@H](NC(=O)CCN2CCCCC2)[C@H](CO)O1)Nc1nccs1	/	.	/	/
Cc1cc(C)c2cc(CN(CC3CCCO3)C(=S)NCc3ccco3)c(=O)[nH]c2c1 (centres undefined)	/	/	.	/
Cc1cc(C)c2cc(CN(Cc3ccco3)C(=O)NCc3ccccc3)c(=O)[nH]c2c1	.	110	.	.
CC[C@@]12C(=O)N(c3cccc(Cl)c3)C(=O)N1[C@H](c1ccc(Br)cc1)[C@@H]1C(=O)N(C(C)(C)C)C(=O)[C@@H]12	.	.	.	.
CC(C)C[C@@]12C(=O)N(c3cccc(Cl)c3)C(=O)N1[C@H](c1ccc(Br)cc1)[C@@H]1C(=O)N(C(C)(C)C)C(=O)[C@@H]12	.	98	.	.
Cc1cc(C)c2c(CN3CCN(Cc4ccc5c(c4)OCO5)CC3)cc(=O)oc2c1	.	150	.	.
Cc1cc(C(=O)N2CCN(Cc3ccc4c(c3)OCO4)CC2)cs1	.	92	.	.
Cc1cc(C)cc(C(=O)N2CCN(Cc3ccc4c(c3)OCO4)CC2)c1	.	.	.	.
Cc1cc(C)c2c(CN3CCN(Cc4ccc5c(c4)OCO5)CC3)cc(=O)oc2c1C	.	.	.	.
CCC(=O)N1C[C@@H](C)[C@H](OC)CN(C)C(=O)c2ccc(NC(=O)Nc3ccccc3)cc2OC[C@H]1C	.	.	.	.
SMILES	Cneo AK release	C2C12 statin	miR122 inh	Yeast UUG start
COCC(=O)Nc1ccc2c(c1)OC[C@H](C)N(CC1CCCCC1)C[C@H](C)[C@H](OC)CN(C)C2=O	.	.	/	.
COc1cccc(S(=O)(=O)N[C@H]2CC[C@H](CCn3cc(-c4ccccc4OC)nn3)O[C@@H]2CO)c1	.	.	/	.
COc1ccc(S(=O)(=O)NNC(=O)c2ccccc2-n2cccc2)cc1	.	112	.	.
CC(C)(C)c1ccc(NC(=O)CON=C(N)c2ccccc2)cc1	.	.	.	.
Cc1ccc(NC(=O)CO/N=C(\N)c2ccccc2)cc1C	.	95	.	.
COc1cc2c3c(c1)C1(C(=O)N3C(C)(C)C=C2C)C(C#N)=C(N)Oc2cc(C)oc(=O)c21 (centres undefined)	.	114	.	.
CC1=CC(C)(C)N2C(=O)C3(C(C#N)=C(N)OC4=C3C(=O)CC(C)(C)C4)c3c(C)c(C)cc1c32 (centres undefined)	.	92	.	.
CC1=CC(C)(C)N2C(=O)C3(C(C#N)=C(N)Oc4cc(C)oc(=O)c43)c3cc(C)cc1c32 (centres undefined)	.	/	.	.
CC(C)NC(=O)N(C)C[C@@H]1Oc2c(NC(=O)c3cnccn3)cccc2C(=O)N([C@H](C)CO)C[C@@H]1C	.	.	.	.
O=C1NC[C@H](CC2CCCCC2)N(CC2CCCCC2)C1=O	.	107	.	.
CCOc1ccc(CC(=N)C2=C(O)CC(C)(C)CC2=O)cc1OCC	.	/	133	.
O=C(c1cc(F)c(F)cc1Cl)N1CCOCC1	.	/	.	.
CC1CCN(C(=O)c2cc(F)c(F)cc2Cl)CC1	.	135	.	.
C[C@H](CO)N1C[C@H](C)[C@H](CN(C)C(=O)Cc2cccnc2)Oc2cc(C3=CCCCC3)ccc2S1(=O)=O	.	.	.	.
CN1CCN(CC(=O)n2c3c(c4ccccc42)CCCC3)CC1	/	.	.	/
CCN(CC)CC(=O)n1c2c(c3ccccc31)CCCC2	.	124	.	.
O=C(c1ccc(C(F)(F)F)cc1)C1CCCN(C(=O)CCN2CCCO2)C1 (centres undefined)	.	67	.	.
O=C(c1ccc(C(F)(F)F)cc1)C1CCCN(C(=O)Cn2cncn2)C1 (centres undefined)	.	/	.	.
COCC#Cc1cnc2c(c1)C(=O)N([C@H](C)CO)C[C@@H](C)[C@H](CN(C)S(C)(=O)=O)O2	.	.	.	/
COc1ccc(C2CC(=O)Oc3c(C(CCN4CCCCC4)c4ccc(N(C)C)cc4)c(OC)cc(OC)c32)cc1 (centres undefined)	.	121	.	.
COc1ccc(C2CC(=O)Oc3c(C(CCN4CCCC(C)C4)c4ccc(N(C)C)cc4)c(OC)cc(OC)c32)cc1 (centres undefined)	.	.	.	.
CC(=O)Nc1ccc(S(=O)(=O)NCC(=O)NCCc2ccc(S(N)(=O)=O)cc2)cc1	.	.	.	.
O=C(Nc1ccc(S(=O)(=O)NCCc2ccccc2)cc1)c1ccco1	/	.	365	/
CC(=O)Nc1ccc(S(=O)(=O)NCCc2ccc(S(N)(=O)=O)cc2)cc1	.	.	226	.
C[C@H]1CN([C@@H](C)CO)C(=O)c2cccc(NS(=O)(=O)c3cccs3)c2O[C@@H]1CN(C)Cc1ccc(Oc2ccccc2)cc1	.	83	.	.
C[C@H]1CN([C@@H](C)CO)C(=O)c2cccc(NS(=O)(=O)c3cccs3)c2O[C@@H]1CN(C)Cc1ccc(C(F)(F)F)cc1	.	.	119[16.7 µM]	.
